miR-21 FLuc: raises the signal of a miR-21 reporter | AID 2288 | 340,000 tested, under 10 active | Potency, µM (series often up to 38.3 µM), without a hit: at the highest dose reporter change, positive = more light | HeLa miR-21 FLuc reporter, luciferase, 48 h; active = well fitted rising curve with a large enough effect; inconclusive = small, poorly fitted or top-dose-only effect; inactive = no such curve, though single readings can be large or run the other way;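 further: % of control where 0% means no effect; miR-21 action dims this reporter so a rising signal means less miR-21 action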
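HeLa miR-21-FLuc reporter line, endogenous miR-21; 2000 cells/well in DMEM/10% FBS; compound titration up to ~40uM final, 48 h, 37 degree Celsius; luciferase detection reagent, 15 min lysis, CCD luminescence.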
Mito fusion yeast: inhibitors of mitochondrial division or activators of mitochondrial fusion | hit rate 0.23% among 320,000 | Potency, µM (top dose mostly 46.1 µM), for inactives: top-dose growth rescue (activation), usual class: activators | S. cerevisiae fusion-defective mutant growth rescue, CellTiterGlo 48 h | AID 485298; further: potency means the concentration at half of the fitted maximal effect; % of control where 0% means no effect; nearly all actives have a fitted effect of over 45% in size
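Growth-rescue viability read-out: after 48 h at the non-permissive 37C in glycerol/ethanol YPEG, yeast mitochondrial fusion mutants are measured by CellTiterGlo luminescence; compounds (23 nl pinned per well) restoring growth score as division inhibitors or fusion activators.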
Nrf2 activator: activators of Nrf2 (ARE) signaling; AREc32 ARE-luciferase reporter (MCF7-derived line), luminescence, 24 h; Potency, µM (highest dose often 46.1 µM), for inactives: top-dose activation, hits mostly activators; hit rate 0.31% among 410,000; further: potency means the concentration at half of the fitted maximal effect; % of control where 0% means no effect; nearly all actives have a fitted effect of over 65% in size
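ARE activation measured as luciferase luminescence (Steady-Glo, 30 min RT) in AREc32_Fluc cells after 24 hr compound exposure at 37 deg C, 5% CO2; cells seeded overnight at 1000/well in OPTI-MEM, 5% FBS.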
Nrf2 inh: inhibitors of Nrf2 signaling | A549 ARE-Fluc reporter, luciferase luminescence, 18-24 h | Potency, µM (titrated, usually from 46 µM), without a hit: top-dose activity change, negative = inhibition, most hits filed as inhibitors | hit rate 2.1% among 360,000 | AID 504444; further: potency means the concentration at half of the fitted maximal effect; on the % scale 0 is the no-effect control and ±100 the full control effect; nearly all actives have a fitted effect of over 60% in size
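Concentration-response testing used A549 ARE_Fluc cells at 5000 cells/well. Following an 18-24 h compound incubation, viability was read by fluorescence (Ex 405/Em 525) and luciferase output by luminescence.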
A549 tox: kills or reduces viability of A549 cells in Nrf2 counter-screen; hit rate 0.16% among 390,000; Potency, µM (series often up to 46 µM), for the others: at the highest dose activity change, negative = cytotoxicity, most hits filed as inhibitors; AID 504648; A549 ARE-Fluc cells, CellTiter-Fluor viability, 18-24 h; further: potency means the concentration at half of the fitted maximal effect; on the % scale 0 is the no-effect control and ±100 the full control effect
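A549 ARE-Fluc cells in 5% FBS OPTI-MEM, 5000 cells/well, rested 2 h then exposed to compounds in concentration-response for 18-24 h at 37 °C. Viability by CellTiter-Fluor fluorescence (Ex 405/Em 525) after 30 min; luciferase luminescence (BugLite, 15 min, RT) read afterwards.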
An asterisk follows results filed as active; u = inconclusive; x = no result. In the library only some 2.3% were active in any assay of this set; here they are far more common. Unless noted, the call rests on the fitted dose curve; in most records, active means well fitted curve in the direction sought with a large enough effect; inconclusive means small, poorly fitted or top-dose-only effect, or another doubt; inactive means no such curve, though single readings can be large; an effect the other way counts as inactive or inconclusive.

SMILES	Mito fusion yeast	Nrf2 inh	A549 tox	Nrf2 activator	miR-21 FLuc
COc1ccc(NC(=O)CSc2ccc3c4c(cccc24)C(=O)c2ccccc2-3)cc1	0.8%	10.3µM*	u	4.5%	-4.0%
COc1ccc(NC(=O)CSc2nnc(C)c3ccccc23)cc1	-12.7%	18.7%	-2.6%	u	-8.3%
N#Cc1cccc(NC(=O)CSc2ccc3c4c(cccc24)C(=O)c2ccccc2-3)c1	9.3%	u	25.9µM*	u	-14.4%
CCOC(=O)c1cn(-c2c(Cl)cccc2Cl)c2cc(Cl)c([N+](=O)[O-])cc2c1=O	-0.1%	4.8%	7.9%	11.2µM*	-8.4%
O=C(NCCC1CCCCN1S(=O)(=O)c1ccc(F)cc1)C(=O)NCc1ccncc1 (stereo not drawn)	-2.0%	11.6µM*	5.3%	-2.4%	x
Cc1ccc(S(=O)(=O)N2CCCCC2CCNC(=O)C(=O)NCc2cccnc2)cc1 (stereo not drawn)	-1.2%	-0.1%	-17.9%	-0.4%	x
Cc1ccc(CNC(=O)C(=O)NCCC2CCCCN2S(=O)(=O)c2ccc(C)cc2)cc1 (stereo not drawn)	26.6%	u	9.1%	3.7%	x
O=C(NCCC1CCCCN1S(=O)(=O)c1ccc(Cl)cc1)C(=O)NCc1ccncc1 (stereo not drawn)	5.3%	20.6µM*	1.8%	0.0%	x
CCCN1CNc2c(c(=O)[nH]c(=S)n2CCc2cccs2)C1	x	-1.3%	13.6%	x	x
NC(=O)c1ccccc1C[C@H](C(=O)O)N1C(=O)c2ccc(C(=O)O)cc2C1=O	5.8%	-4.7%	1.0%	x	x
CCCCc1ccc(NC(=O)Cn2nnc3sc4c(c3c2=O)CCC(C)C4)cc1 (stereo not drawn)	x	1.5%	5.4%	-1.4%	-1.4%
O=C(COc1ccccc1)NCC(=O)N/N=C/c1cc(Br)ccc1OCc1ccccc1	17.8µM*	-16.3%	5.3%	3.6%	-34.5%
CC(C)(C)OC(=O)Cc1nnc(-c2nc3ccccc3[nH]2)s1	x	u	-2.9%	x	x
Cc1cc(=O)oc2cc(NC(=O)c3ccccc3Cl)ccc12	10.9%	22.7%	-1.7%	5.01µM*	-81.7%
CCOc1ccccc1NC(=O)CSc1nc2c(oc3ccccc32)c(=O)n1C(C)C	x	0.7%	1.2%	-1.4%	-3.6%
CC1C(=O)N2CCCc3cc(S(=O)(=O)NCCc4ccccc4)cc1c32 (stereo not drawn)	-8.3%	16.4µM*	-1.8%	-0.4%	2.3%
COc1ccc(C2Nc3ccccc3C(=O)N2Cc2ccccc2)cc1COc1cccc(Cl)c1 (stereo not drawn)	x	-11.7%	2.8%	x	x
CCOC1(c2ccccc2)CC1C(=O)N/N=C/c1cccc([N+](=O)[O-])c1 (stereo not drawn)	5.5%	18.4µM*	-7.5%	9.1%	-4.7%
O=C(Nc1nccs1)C1CC=CC2CCN(Cc3ccc(Cl)c(Cl)c3)C(=O)C21 (stereo not drawn)	x	-4.7%	-0.3%	x	x
CS(=O)(=O)c1nc([N+](=O)[O-])nn1CCCc1ccccc1	x	u	-8.5%	-2.6%	x
Cn1nc([N+](=O)[O-])nc1S(C)(=O)=O	-3.3%	23.1µM*	-7.9%	-2.2%	u
O=C1C(SCCO)=C(SCCO)C(=O)c2ccccc21	u	25.9µM*	u	-4.2%	x
CC1=C(SCc2ccccc2)C(=O)c2ccccc2C1=O	x	-14.2%	-13.4%	-1.6%	x
COc1cccc(C2C(C#N)=C(NC(=O)NCc3ccccc3)Oc3ccc4ccccc4c32)c1 (stereo not drawn)	x	-6.8%	u	x	x
FC1(F)Oc2ccc(-c3ccc4ncnc(NCc5cccs5)c4c3)cc2O1	x	13µM*	-13.5%	x	x
Cc1cccc(-c2ccc3ncnc(NCc4cccs4)c3c2)c1	3.6%	20.6µM*	-2.7%	-0.8%	x
CCCCCC[n+]1ccccc1/C=C/c1ccc(N(C)C)cc1	x	x	x	0.4%	x
CC[n+]1c(/C=C/c2ccc(N(C)C)cc2)ccc2ccccc21	-22.4%	8.2µM*	20.6µM*	-0.6%	26.6%
CC[n+]1c(/C=C/c2ccc(OC(C)=O)c(OC)c2)ccc2ccccc21	0.0%	u	20.6µM*	3.6%	-14.8%
CC[n+]1ccc(/C=C/c2ccc(N(C)C)cc2)c2ccccc21	-24.5%	3.66µM*	9.2µM*	-1.0%	u

4 records drawn at random from the list so far, as already listed:
SMILES	Mito fusion yeast	Nrf2 inh	A549 tox	Nrf2 activator	miR-21 FLuc
CC[n+]1c(/C=C/c2ccc(N(C)C)cc2)ccc2ccccc21	-22.4%	8.2µM*	20.6µM*	-0.6%	26.6%
CC[n+]1c(/C=C/c2ccc(OC(C)=O)c(OC)c2)ccc2ccccc21	0.0%	u	20.6µM*	3.6%	-14.8%
O=C1C(SCCO)=C(SCCO)C(=O)c2ccccc21	u	25.9µM*	u	-4.2%	x
CC1=C(SCc2ccccc2)C(=O)c2ccccc2C1=O	x	-14.2%	-13.4%	-1.6%	x

Bioassay records (PubChem BioAssay)
